Experimental data taken from ChEMBL document CHEMBL3351466 (Bioorg Med Chem Lett, 2014).

By UniProt entry, the sequences of proteins in these tests, tags left out.
UniProt Q8NER1, whole entry: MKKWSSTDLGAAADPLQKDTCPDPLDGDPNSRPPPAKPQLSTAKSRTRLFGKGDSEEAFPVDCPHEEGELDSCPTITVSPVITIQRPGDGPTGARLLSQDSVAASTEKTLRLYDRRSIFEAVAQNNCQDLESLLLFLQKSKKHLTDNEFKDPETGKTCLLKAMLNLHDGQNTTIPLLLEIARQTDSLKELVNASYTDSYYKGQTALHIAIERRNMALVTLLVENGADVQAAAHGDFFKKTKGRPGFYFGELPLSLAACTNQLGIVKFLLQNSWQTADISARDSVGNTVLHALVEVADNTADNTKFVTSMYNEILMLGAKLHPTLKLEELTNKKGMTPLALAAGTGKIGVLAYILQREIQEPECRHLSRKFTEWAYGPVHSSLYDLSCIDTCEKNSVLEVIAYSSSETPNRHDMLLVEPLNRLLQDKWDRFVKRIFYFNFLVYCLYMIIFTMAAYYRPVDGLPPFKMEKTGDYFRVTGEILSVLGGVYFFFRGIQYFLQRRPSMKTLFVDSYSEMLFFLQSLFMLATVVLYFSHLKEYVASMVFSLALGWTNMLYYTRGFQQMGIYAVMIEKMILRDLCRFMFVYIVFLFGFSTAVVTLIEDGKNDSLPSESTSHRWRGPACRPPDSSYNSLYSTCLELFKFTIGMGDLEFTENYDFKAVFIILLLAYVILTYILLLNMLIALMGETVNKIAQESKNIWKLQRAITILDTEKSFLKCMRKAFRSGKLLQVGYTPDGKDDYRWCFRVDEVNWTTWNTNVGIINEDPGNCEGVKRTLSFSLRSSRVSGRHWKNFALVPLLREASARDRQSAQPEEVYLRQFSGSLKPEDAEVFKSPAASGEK

Target: Transient receptor potential cation channel subfamily V member 1 (Homo sapiens, UniProt Q8NER1)
Assay: Antagonist activity at human TRPV1 expressed in CHO cells assessed as inhibition of capsaicin-induced increase in intracellular Ca2+ level by FLIPR assay
Format: cell-based

Ki: 0.7 nM
SMILES: CC(C(=O)NCc1ccc(C(F)(F)F)nc1/C=C/C(C)(C)C)c1ccc(NS(C)(=O)=O)c(F)c1 (stereo unspecified)
